Source: patent US20180360810A1, “NUPHARIDINE COMPOUNDS AND DERIVATIVES THEREOF FOR THE TREATMENT OF CYSTEINE PROTEASE RELATED DISEASES” (B. G. NEGEV TECHNOLOGIES AND APPLICATIONS LTD., AT …, priority 2015, published 2018)

Sequences of proteins named here, by UniProt entry; tags and fusion partners are left off. Residues count along the entry.
UniProt P00784, 134-345 limits assumed: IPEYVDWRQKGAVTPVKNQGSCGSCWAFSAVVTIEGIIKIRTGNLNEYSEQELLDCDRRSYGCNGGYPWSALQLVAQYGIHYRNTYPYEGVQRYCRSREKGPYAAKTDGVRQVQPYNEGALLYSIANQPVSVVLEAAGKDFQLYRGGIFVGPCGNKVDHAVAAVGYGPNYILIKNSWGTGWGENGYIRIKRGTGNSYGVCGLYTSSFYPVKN

Target: Papain latex (Carica papaya, UniProt P00784)
Experiment: Papain inhibition assay, Casein FITC
Details: read-out: IC50 (Nanomolar); substrate Casein FITC; pH 6.5; molarity calculated on assumed molecular weight of 526 daltons; tested form: trifluoroacetate
Procedure: The assays were performed in triplicates using transparent 96 well plates (167008; Nunc, Roskilde, Denmark). Reaction mixture 100 μl contained: 35 μl reaction buffer (0.1 M phosphate buffer, pH 6.5), 50 μl of Casein FITC (C3777-25MG; sigma), serially dissolved in reaction buffer to concentrations ranging from 10 μg/100 μl to 1.25 μg/100 μl in the final reaction. Inhibitors dissolved in DMSO were added in 5 μl aliquots at final concentrations in reaction mixture ranging from 0.05 μg/μl to 0.005 μg/μl. In control reaction 5 μl DMSO was added. Papain (P3125-100 mg; sigma) stock of 5 μg/100 μl dissolved in reaction buffer was added last in a 10 μl aliquot at a final concentration of 0.5 μg/100 μl reaction mixture, just before the fluorometric measurement. The data was collected for 2.5 h every 90 sec. Initial reaction velocity in reactions containing various substrate concentrations ranging from 1.25 to 10 μg/μl were used to calculate the IC50 values. […]
Inhibition assays were performed in triplicates using 96 well plates transparent for Calpain, Trypsin, Papain, Cathepsin L and Cathepsin B (167008; Nunc, Roskilde, Denmark), or black for Cathepsin S, Cathepsin D and Insulyzin (ide) (Greiner 96 Polystyrol GRE96fb) according to manufacturers' instructions. […] Molarity of inhibitors were calculated based on assumed molecular weight of 526 daltons as a reference value for comparative evaluations.

C1=[N+](CCCCc2ccccc2)CCCC12CCCS2 (stereo not shown) gave an IC50 of 78.5 nM.
